Curated experimental data: water solubility values

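The numbers are reported measurements, compiled and curated for the OPERA QSAR suite. A listed value is a point estimate from one report or more. How each value was measured is not recorded, so precision varies. The measured form (salt, isomer or mixture) is not always the one drawn. Unmarked limits or estimates from the upstream databases cannot be ruled out.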

Solubility in water is on a log10 molar scale (set defined at 25 °C).

Listed for C.O=C(O)[C@H]1c2ccccc2[C@H](C(=O)O)c2ccccc21: log solubility -2.742 (log10 mol/L).
Listed for CCOC(=O)Cc1cccc2ccccc12 [Ethyl 1-naphthaleneacetate]: log solubility -3.959 (log10 mol/L).
Listed for Oc1ccc(Oc2ccc(Cl)cc2Cl)cc1 [Phenol, 4-(2,4-dichlorophenoxy)-]: log solubility -4.2 (log10 mol/L).
Listed for CCOC(=O)/C(=C\c1ccc(Cl)cc1)N=CO [Ethyl 2-formamido (4-chlorophenyl) acrylate]: log solubility -3.01 (log10 mol/L).
Listed for CN1[C@@H]2CC[C@H]1C[C@@H](OC(=O)C(O)c1ccccc1)C2 (mixture of isomers): log solubility -1.44 (log10 mol/L).
Listed for Clc1cc(Cl)c(Oc2cccc(Cl)c2Cl)cc1Cl [2,2',3',4,5-Pentachlorodiphenylether]: log solubility -7.48 (log10 mol/L).
Listed for CCC1(c2ccccc2)NC(=O)N(C)C1=O (stereo not drawn) [Mephenytoin]: log solubility -2.352 (log10 mol/L).
Listed for Nc1ccc(S(=O)(=O)Nc2ncnc3nc[nH]c23)cc1 [N-(7H-Purine-6-yl)-4-aminobenzenesulfonamide]: log solubility -4.349 (log10 mol/L).
Listed for NC(=O)Nc1cccc(F)c1 [Urea, (m-fluorophenyl)-]: log solubility -1.429 (log10 mol/L).
Listed for Nc1cc(S(=O)(=O)O)c2ccccc2c1O [1-Naphthalenesulfonic acid, 3-amino-4-hydroxy-]: log solubility -2.744 (log10 mol/L).
Listed for Nc1ccc(N=Nc2cccc(N=Nc3ccc(N)cc3N)c2)c(N)c1 [C.I. Solvent Brown 41]: log solubility -4.197 (log10 mol/L).
Listed for N=C(N)NCC1COC2(CCCCC2)O1.N=C(N)NCC1COC2(CCCCC2)O1.O=S(=O)(O)O (stereo not drawn) [Guanadrel sulfate]: log solubility -0.839 (log10 mol/L).
Listed for Cc1ccc(C(N)=O)cc1 [Benzamide, 4-methyl-]: log solubility -1.19 (log10 mol/L).
Listed for CCN(CC)C(=O)c1cccc(C)c1 [DEET]: log solubility -2.32 (log10 mol/L).
Listed for CC1(O)[C@H](O)[C@@H](O)C(O)[C@@H](O)[C@@H]1O (some centres not stated) [Mytilitol]: log solubility -1.655 (log10 mol/L).
Listed for Cc1ncc(COP(=O)(O)O)c(C=O)c1O [Pyridoxal phosphate]: log solubility -0.946 (log10 mol/L).
Listed for O=C(O)c1cc(Cl)cc(C(=O)O)c1 [1,3-Benzenedicarboxylic acid, 5-chloro-]: log solubility -2.84 (log10 mol/L).
Listed for O=C(C=Cc1ccccc1)OCCc1ccccc1 [Phenethyl cinnamate]: log solubility -5.683 (log10 mol/L).
Listed for O=S([O-])c1ccccc1.O=S([O-])c1ccccc1.[Zn+2] [Benzenesulfinic acid, zinc salt (2:1)]: log solubility -2.593 (log10 mol/L).
Listed for O=C(O)C1C2C=CC(C2)C1C(=O)O (stereo not drawn) [Bicyclo[2.2.1]hept-5-ene-2,3-dicarboxylic acid]: log solubility -1.711 (log10 mol/L).
Listed for CC(CCC(=O)O)=NNC(=O)c1ccncc1 [4-[2-(Pyridine-4-carbonyl)hydrazinylidene]pentanoic acid]: log solubility -1.593 (log10 mol/L).
Listed for CCC(=O)NC(=O)CC [Dipropionamide]: log solubility -1.713 (log10 mol/L).
Listed for CCCCCCCCCCCCCCCCOC(=O)c1cccnc1 [Hexadecyl nicotinate]: log solubility -3.429 (log10 mol/L).
Listed for C[C@@H]1CN(c2c(F)c(N)c3c(=O)c(C(=O)O)cn(C4CC4)c3c2F)C[C@H](C)N1 [Sparfloxacin]: log solubility -3.541 (log10 mol/L).
Listed for COC(=O)C(C#N)C(=O)CC(C)C (stereo not drawn) [2-Cyano-5-methyl-3-oxo-hexanoic acid methyl ester]: log solubility -2.725 (log10 mol/L).
Listed for Sc1cnc2cncnc2n1: log solubility -2.71 (log10 mol/L).
Listed for CC1C(=O)CCC2C(O)CCC(O)C12 (stereo not drawn) [5,8-Dihydroxy-1-methyloctahydronaphthalen-2(1H)-one]: log solubility -0.297 (log10 mol/L).
Listed for Clc1cc(Oc2cc(Cl)c(Cl)c(Cl)c2Cl)cc(Cl)c1Cl [2,3,3',4,4',5,5'-Heptachlorodiphenyl ether]: log solubility -9.54 (log10 mol/L).
Listed for CCOC(=O)c1ccc(O)c(O)c1 [Ethyl protocatechuate]: log solubility -1.856 (log10 mol/L).
Listed for CCCCCCCCCCCO [1-Undecanol]: log solubility -4.437 (log10 mol/L).
Listed for O=C(O)CSC1CCCCC1 [2-(Cyclohexylthio)acetic acid]: log solubility -1.338 (log10 mol/L).
Listed for Nc1nc(Cl)nc2c1ncn2[C@@H]1O[C@H](CO)[C@@H](O)[C@@H]1F [Clofarabine]: log solubility -1.793 (log10 mol/L).
Listed for O=S1CS(=O)CS(=O)C1 (stereo not drawn) [1,3,5-Trithiane 1,3,5-trioxide]: log solubility -2.143 (log10 mol/L).
Listed for C=CCOc1ccc(CC(=O)O)cc1Cl [Alclofenac]: log solubility -3.129 (log10 mol/L).
Listed for O=C1c2ccccc2-c2ccc3c4c(ccc1c24)-c1ccccc1C3=O [C.I. Vat Yellow 4]: log solubility -8.1 (log10 mol/L).
Listed for Nc1nc(=O)n(-c2ccccc2)[nH]1 [5-Amino-2-phenyl-1,2-dihydro-3H-1,2,4-triazol-3-one]: log solubility -2.468 (log10 mol/L).
Listed for CCOC(=O)c1ccccc1O [Ethyl salicylate]: log solubility -2.824 (log10 mol/L).
Listed for CCCC[N+](CC)(CCCC)CCCCCC[N+](CC)(CCCC)CCCC.[OH-].[OH-]: log solubility -0.189 (log10 mol/L).
Listed for O=c1c(Br)cccc(Br)c1O [3,7-Dibromo-2-hydroxy-2,4,6-cycloheptatrien-1-one]: log solubility -3.503 (log10 mol/L).

The 4 lowest values of log solubility among the entries above:

SMILES	name	log solubility (log10 mol/L)
Clc1cc(Oc2cc(Cl)c(Cl)c(Cl)c2Cl)cc(Cl)c1Cl	2,3,3',4,4',5,5'-Heptachlorodiphenyl ether	-9.54
O=C1c2ccccc2-c2ccc3c4c(ccc1c24)-c1ccccc1C3=O	C.I. Vat Yellow 4	-8.1
Clc1cc(Cl)c(Oc2cccc(Cl)c2Cl)cc1Cl	2,2',3',4,5-Pentachlorodiphenylether	-7.48
O=C(C=Cc1ccccc1)OCCc1ccccc1	Phenethyl cinnamate	-5.683

Values as listed in the OPERA 2.9 repository of K. Mansouri.